Data: article PMC5693303 (Journal of medicinal chemistry, 2016)

Molecular target: KOR (Homo sapiens, UniProt P41145)
Experiment: Radioligand competition binding, [^3H]U69,593

CC[C@H](C)[C@H](NC(=O)[C@H](CCCNC(=N)N)NC(=O)[C@H](CC(C)C)NC(=O)[C@H](Cc1ccccc1)NC(=O)CNC(=O)CNC(=O)[C@@H](N)Cc1ccc(O)cc1)C(=O)N[C@@H](CCCNC(=N)N)C(N)=O [compound 13]
Ki: 0.22 nM
